For the test, the system named is patients with SAH after aneurysmal rupture. The test is described as follows: Spasm (CVS) related brain infarcts on CCT in SAH patients, Molsidomine in addition to standard therapy vs standard Nimodipine therapy. Type of test: in vivo, human. As for the experimental part:
CCT at the beginning and after treatment were analyzed independently by two experienced neuroradiologists and were scanned for development of delayed brain infarction. At least three months after discharge a modified NIH-SS and a modified Rankin Scale (mRS) for clinical follow up was assessed. 83 patients admitted to the Intensive Care Unit of the University Hospital of Munster, Germany, after spontaneous aneurysmal SAH were registered in an observational study. Seven patients died in the first 124 hours after admission, without detected CVS probably related to malignant brain edema and severity of initial SAH. These patients were excluded from further evaluation. […] Nimodipine is a calcium channel antagonist and is the most rigorously studied and only drug approved by the US Food and Drug Administration (FDA) for use in the treatment of vasospasm (71). Due to evidence for CVS (TCD, clinical) all patients received diagnostic DSA and a rescue therapy with local, intra-arterial Nimodipine infusions over 20 minutes. […] Out of 76 individuals 27 patients received Molsidomine i.v. in an individually up-titrated dosage with a target quantity of 3.5-10 mg/h dependent on systemic circulation reactions. […] Within 24 h after admission to the ICU patients were treated with coil embolization and/or clipping. […] Appearance of CVS. Male and female patients with an age of 18 years and written informed consent for the additional application of Molsidomine. Spontaneous SAH after aneurysmal rupture and a clinical stage of Hunt and Hess grade Ito V. Exclusion criteria for patients were: No detected CVS. […] CCT and DSA images were independently reported by two experienced neuroradiologists for infarction and vasospasm. CVS related infarcts were diagnosed if hypodense lesions could be detected 72 h or later after therapeutic intervention or operation in comparison to the 24 h control CCT scan and being accompanied by clinical deterioration due to CVS or positive Doppler ultrasound or CVS in DSA.

Structures are written as SMILES.

Consider `COCCOC(=O)C1=C(C)NC(C)=C(C(=O)OC(C)C)C1c1cccc([N+](=O)[O-])c1` (stereo not shown) [Nimodipine, 1,4-dihydro-2,6-dimethyl-4-(3-nitrophenyl)-3,5-pyridinedicarboxylic acid 2-methoxyethyl 1-methylethyl ester], for which the “Spasmus related infarcts, Infarction (number of patients)” value is 4 (Hunt & Hess grade III°); 1 (Hunt & Hess grade II°); 14 (Hunt & Hess grade IV°); 4 (Hunt & Hess grade I°); 2 (Hunt & Hess grade V°). Further, where the note is “all Hunt & Hess grades”, the “patients who developed CVS associated infarcts (share of group)” value is given as 51%. The “patients who developed CVS associated infarcts (number)” value (all Hunt & Hess grades, groups of 49 (Nimodipine) and 27 (Molsidomine)) came to 25.

For the origin of these results see patent US20130252959A1, “NITRIC OXIDE DONORS IN THERAPY OF NITRIC OXIDE DEFICIENCY-INDUCED DISTURBANCES OF CEREBRAL MICROCIRCULATION” (West-Falische Wilhelms-Universitat Munster, priority 2010, published 2013).
